# AlphaSeq binding of Ab-91 heavy chain variants to a spike HR2 peptide

Values reported by Engelhart et al. 2022, doi:10.1038/s41597-022-01779-4 (FLAb copy).

Target: peptide PDVDLGDISGINAS, taken from heptad repeat 2 (HR2) of SARS-CoV-2 spike.

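Phage display of a naive human antibody library on the peptide gave the parent. Variants in AAYL51 differ from the parent at up to three CDR positions; double and triple changes were sampled at random. AlphaSeq pools MATa yeast showing the antibodies with MATalpha yeast showing the peptide. Mating (16 h, 30 °C) was followed by selection of diploids and sequencing of their barcodes. Read counts were normalised to the haploid input and turned into Kd by a linear fit to BCL2-family pairs of known affinity, for each replicate. The assay was run in three technical replicates.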

Each scFv is VL, three GGGGS repeats, VH, as in the parent Ab-91, and differs from it in the CDRs of the heavy chain only.
VL: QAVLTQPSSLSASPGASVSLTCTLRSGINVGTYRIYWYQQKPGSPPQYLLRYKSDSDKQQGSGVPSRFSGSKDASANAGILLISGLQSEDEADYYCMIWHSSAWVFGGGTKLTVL
VH: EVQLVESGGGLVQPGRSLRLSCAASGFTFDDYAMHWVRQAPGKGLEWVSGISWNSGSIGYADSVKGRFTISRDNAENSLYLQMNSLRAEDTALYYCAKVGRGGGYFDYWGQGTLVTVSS

The parent's heavy chain CDRs are GFTFDDYAMH, GISWNSGSIGYADSVK, VGRGGGYFDY; each variant's own CDRs replace them letter for letter.
Affinities are written as log10 Kd with Kd in nM; a lower number is a better binder.
A mean of the replicates is given; it leaves out those without a signal.
"nd" means that the variant was in the library but no mating with the target was seen in any replicate; the authors take this as a sign of poor binding, and no number exists.

{"CDR-H1": "GATFDDYAMR", "CDR-H2": "GISWNIGSIGYADSVK", "CDR-H3": "VGRGGGYFDY", "mean, log10 nM": "5.06", "detected": "2/3"}
{"CDR-H1": "GFTFDDYAMD", "CDR-H2": "GISWNRGSIGYADSVL", "CDR-H3": "VGRGGGYFDY", "mean, log10 nM": "4.52", "detected": "2/3"}
{"CDR-H1": "GFTFDDYAMH", "CDR-H2": "GISWNTGSIGYADSVW", "CDR-H3": "VGRGGGYFDY", "mean, log10 nM": "4.96", "detected": "1/3"}
{"CDR-H1": "GFTFDDYAMH", "CDR-H2": "IISWNSGSIGAADSVK", "CDR-H3": "VGRGGGKFDY", "mean, log10 nM": "5.00", "detected": "1/3"}
{"CDR-H1": "GFTFDDYAMH", "CDR-H2": "GQSWNSGSIFYADSVK", "CDR-H3": "VRRGGGYFDY", "mean, log10 nM": "4.94", "detected": "2/3"}
{"CDR-H1": "PFTFDDYAMH", "CDR-H2": "GISWNSGSIGYADSVK", "CDR-H3": "VGTGGGYFDY", "mean, log10 nM": "nd", "detected": "0/3"}
{"CDR-H1": "GFTFDDYAMH", "CDR-H2": "GISWNSGSIEPADSVK", "CDR-H3": "VERGGGYFDY", "mean, log10 nM": "nd", "detected": "0/3"}
{"CDR-H1": "GYTFDDYAMH", "CDR-H2": "GISWNSGPIGYAISVK", "CDR-H3": "VGRGGGYFDY", "mean, log10 nM": "4.03", "detected": "1/3"}
{"CDR-H1": "GQTFDDYAMH", "CDR-H2": "GISWNSGSIGYADSVK", "CDR-H3": "VGWGGYYFDY", "mean, log10 nM": "5.38", "detected": "3/3"}
{"CDR-H1": "GFTFNDYAMH", "CDR-H2": "GISWNSGSIGYQDTVK", "CDR-H3": "VGRGGGYFDY", "mean, log10 nM": "1.25", "detected": "3/3"}
{"CDR-H1": "GFTFDDYAMH", "CDR-H2": "GISWNSGWMGYADSVH", "CDR-H3": "VGRGGGYFDY", "mean, log10 nM": "nd", "detected": "0/3"}
{"CDR-H1": "GFTSDDYAMH", "CDR-H2": "GISWNSGSEGYADSVC", "CDR-H3": "VGRGGGYFDY", "mean, log10 nM": "nd", "detected": "0/3"}
{"CDR-H1": "GFTFDDYAMH", "CDR-H2": "MISWTSGSIGYADSVK", "CDR-H3": "VGRGGGYFDY", "mean, log10 nM": "nd", "detected": "0/3"}
{"CDR-H1": "GFTFDDYAMR", "CDR-H2": "GISWNSGSIGYADSVI", "CDR-H3": "VGRPGGYFDY", "mean, log10 nM": "4.35", "detected": "1/3"}
{"CDR-H1": "GFTFDDYAMH", "CDR-H2": "GICWNSGSIGYYDSVK", "CDR-H3": "VGRGGGYFDV", "mean, log10 nM": "nd", "detected": "0/3"}
{"CDR-H1": "GTTFDDYAMH", "CDR-H2": "GISWNSGSIGYADSVK", "CDR-H3": "VARGGGYFYY", "mean, log10 nM": "nd", "detected": "0/3"}
{"CDR-H1": "GFTFDDYAQC", "CDR-H2": "GISWCSGSIGYADSVK", "CDR-H3": "VGRGGGYFDY", "mean, log10 nM": "5.58", "detected": "2/3"}
{"CDR-H1": "GFTFDDYAMH", "CDR-H2": "GISWNGGNIGYADSVK", "CDR-H3": "VGRGGGYFDY", "mean, log10 nM": "1.61", "detected": "3/3"}
{"CDR-H1": "GFTFDDYAMD", "CDR-H2": "GISWNSGSIGYADSVK", "CDR-H3": "VGYSGGYFDY", "mean, log10 nM": "5.35", "detected": "3/3"}
{"CDR-H1": "GFTHDDYAMH", "CDR-H2": "GISWNSGSIGYADSVK", "CDR-H3": "FGRGGGFFDY", "mean, log10 nM": "5.45", "detected": "1/3"}
{"CDR-H1": "GFTFDDYAMH", "CDR-H2": "GISWNSGSIGYCNSVK", "CDR-H3": "LGRGGGYFDY", "mean, log10 nM": "4.87", "detected": "3/3"}
{"CDR-H1": "GFTFDDYMMD", "CDR-H2": "GISWNSGSIGYADSVK", "CDR-H3": "VGRGGGYYDY", "mean, log10 nM": "nd", "detected": "0/3"}
{"CDR-H1": "GFTFRFYAMH", "CDR-H2": "GISWNSGSIGYADSVK", "CDR-H3": "VGRGGGYADY", "mean, log10 nM": "4.05", "detected": "3/3"}

Picked from the list: the 4 lowest averages where every replicate gave a value.

{"CDR-H1": "GFTFNDYAMH", "CDR-H2": "GISWNSGSIGYQDTVK", "CDR-H3": "VGRGGGYFDY", "mean, log10 nM": "1.25", "detected": "3/3"}
{"CDR-H1": "GFTFDDYAMH", "CDR-H2": "GISWNGGNIGYADSVK", "CDR-H3": "VGRGGGYFDY", "mean, log10 nM": "1.61", "detected": "3/3"}
{"CDR-H1": "GFTFRFYAMH", "CDR-H2": "GISWNSGSIGYADSVK", "CDR-H3": "VGRGGGYADY", "mean, log10 nM": "4.05", "detected": "3/3"}
{"CDR-H1": "GFTFDDYAMH", "CDR-H2": "GISWNSGSIGYCNSVK", "CDR-H3": "LGRGGGYFDY", "mean, log10 nM": "4.87", "detected": "3/3"}

Background: pairings of library AAYL51 with three empty control strains gave a value in 21% of cases (median 4.54, 5th percentile 3.26). Values in that range, when seen in few replicates, are hard to tell from nonspecific mating.
For reference, the parent read 1.86 as the reference entry and 0.88 as a member of this library.